## Apparent affinities of Ab-14 variants for a coronavirus HR2 peptide

Source: Li et al. 2023 (doi:10.1038/s41467-023-39022-2), MIT Lincoln Laboratory and A-Alpha Bio; data file from the FLAb repository.

Target peptide (SARS-CoV-2 spike, HR2 region): PDVDLGDISGINAS

Each scFv is VH, a (GGGGS)3 linker, VL, as in the parent Ab-14, and differs from it in the CDRs of the light chain only.
VH: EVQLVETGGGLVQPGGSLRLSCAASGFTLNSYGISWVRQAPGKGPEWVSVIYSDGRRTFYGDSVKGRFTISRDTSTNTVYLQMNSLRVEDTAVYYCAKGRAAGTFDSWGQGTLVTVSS
VL: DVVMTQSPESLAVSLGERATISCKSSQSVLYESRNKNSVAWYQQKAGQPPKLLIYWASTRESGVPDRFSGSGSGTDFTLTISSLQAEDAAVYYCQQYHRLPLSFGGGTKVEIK

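Phage display of a naive human antibody library on the peptide gave the parent. The variants were designed computationally from a first round of random CDR variants and then made and measured. Their group label is 14L_GP_Gen (GP: Gaussian process model; Gen: genetic algorithm; a sequence that several methods proposed may carry one label only). The scFvs were displayed on barcoded MATa yeast, the peptide on MATalpha yeast. After mating in shaken culture at 30 °C for 16 h, diploids were selected and their barcode pairs sequenced. The ratio of observed to expected reads was calibrated, replicate by replicate, on BCL2-family standards whose Kd was known from biolayer interferometry. Each pool was mated in six replicate cultures.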

Substitutions are numbered in sequence along the VL above, starting at 1 (not Kabat). Scale: log10 of Kd in nM, estimated from mating counts; low values are strong binders. A pair that was not seen in that replicate is written "nd"; this usually means weak binding, but a binder can also be missed. The parent sequence was in this pool as ten entries: three were never detected, three once, and four in most replicates, with averages from 0.34 to 2.37. Values of this round are not directly comparable with the first-round values of the same sequences. The authors' rule: three or more of the six replicates give a measured affinity, fewer mean a poor binder. Nonspecific signal, from three strains lacking the peptide, appeared in 4% of pairings of all light chain designs, centred on 2.64 (5% of these signals below 1.59); values are not corrected for it. For each scFv, signals with the empty controls are counted beside the result, with their mean in brackets.

changes	log10 Kd, replicates	signal with controls
S25V+V29K+W56E	0.17 / -0.14 / -0.26 / 0.09 / 0.09 / -0.14	0 of 18
S25L+K36F+W56N+E61M	0.39 / 0.15 / 0.54 / 0.45 / 0.33 / 0.34	0 of 18
S25L+V29E+W56N+S58N+T59Q	0.00 / -0.08 / 0.04 / -0.18 / -0.17 / 0.15	1 of 18 (2.82)
S25L+V29M+W56D+E61C	-0.39 / -0.31 / -0.38 / -0.43 / -0.34 / -0.21	0 of 18
S25L+S26P+V29H+W56N+S62V	0.18 / -0.09 / -0.03 / -0.18 / -0.19 / 0.09	2 of 18 (4.18)
S25L+S26E+V29W+W56N+T59Q+S62D	1.04 / 1.07 / 1.20 / 1.14 / 0.91 / 1.31	0 of 18
S25L+V29F+S38N+W56G	0.03 / -0.29 / -0.26 / -0.32 / -0.18 / -0.11	3 of 18 (3.78)
S25L+L30C+W56D	0.74 / 0.82 / 0.82 / 0.97 / 0.26 / 0.79	0 of 18
S25V+V29Y+W56Q	0.18 / 0.06 / 0.01 / -0.21 / -0.28 / 0.12	2 of 18 (3.21)
S25L+W56D+S58H	-0.10 / -0.18 / -0.19 / -0.20 / -0.25 / -0.16	0 of 18
S25V+V29W+S38A+W56N	-0.25 / -0.28 / -0.37 / -0.34 / -0.32 / -0.16	2 of 18 (4.03)
S25L+S26P+L30P+W56N+S62Q	-0.23 / -0.19 / -0.60 / -0.35 / -0.19 / -0.77	0 of 18
S25L+S26P+V29M+W56N+T59Q	0.07 / -0.13 / -0.21 / -0.26 / -0.23 / 0.00	1 of 18 (1.98)
S25L+S26P+V29D+W56G	0.43 / 0.66 / 0.53 / 0.17 / 0.33 / 0.68	2 of 18 (2.32)
S25L+L30Q+W56N+E61M	-0.05 / -0.06 / 0.10 / -0.24 / -0.14 / 0.40	0 of 18
S25L+S33E+K36P+W56N+T59Q	0.04 / 0.02 / -0.16 / -0.19 / -0.30 / -0.13	0 of 18
S25L+V29M+W56Q	-0.18 / -0.11 / -0.28 / -0.34 / -0.39 / -0.18	1 of 18 (2.77)
S25L+V29Q+W56Q+E61L	-0.11 / -0.04 / -0.13 / -0.32 / 0.12 / 0.00	0 of 18
S25L+S33E+S38N+W56H	-0.09 / -0.28 / -0.12 / -0.36 / -0.17 / 0.04	2 of 18 (3.42)
S25V+S26Y+W56E	0.03 / 0.17 / -0.05 / -0.16 / -0.09 / 0.12	1 of 18 (2.94)
S25F+V29H+W56D	-0.18 / -0.26 / -0.78 / -0.74 / -0.64 / -0.63	0 of 18
S25L+V29D+S38N+W56Q	0.04 / -0.35 / -0.59 / -0.53 / -0.40 / -0.14	0 of 18
S25L+V29Y+S38N+W56S	-0.33 / -0.57 / -0.45 / -0.50 / -0.55 / -0.37	1 of 18 (2.66)
S25L+S26E+L30P+W56N+E61M	-0.56 / nd / nd / nd / -0.11 / nd	0 of 18
S25F+W56G+E61L	-0.01 / -0.19 / -0.19 / -0.46 / -0.46 / -0.17	2 of 18 (3.01)
S25L+W56N+T59Y+S62V	0.05 / 0.06 / -0.07 / -0.19 / -0.14 / 0.25	2 of 18 (1.72)
S25V+W56N+T59L	-0.40 / -0.37 / -0.38 / -0.50 / -0.46 / -0.36	0 of 18
S25F+V29W+W56G+T59Q	-0.41 / -0.38 / -0.47 / -0.54 / -0.50 / -0.28	0 of 18
S25L+S26Q+N35M+W56N+E61L	0.31 / 0.13 / -0.05 / 0.24 / 0.09 / 0.26	2 of 18 (2.67)
S25L+S33Q+W56N+E61C	0.15 / 0.03 / 0.01 / -0.23 / 0.05 / -0.10	0 of 18
S25L+S26D+V29K+W56N+T59Q	-0.13 / -0.10 / -0.38 / -0.36 / -0.17 / 0.00	1 of 18 (3.17)
S25L+V29N+W56N+T59Q+E61L	-0.43 / -0.33 / -0.42 / -0.44 / -0.56 / -0.19	1 of 18 (2.34)

A selection of 4 entries from above:

| changes | log10 Kd, replicates | signal with controls |
|---|---|---|
| S25F+V29W+W56G+T59Q | -0.41 / -0.38 / -0.47 / -0.54 / -0.50 / -0.28 | 0 of 18 |
| S25L+V29M+W56Q | -0.18 / -0.11 / -0.28 / -0.34 / -0.39 / -0.18 | 1 of 18 (2.77) |
| S25L+V29Q+W56Q+E61L | -0.11 / -0.04 / -0.13 / -0.32 / 0.12 / 0.00 | 0 of 18 |
| S25L+S26Q+N35M+W56N+E61L | 0.31 / 0.13 / -0.05 / 0.24 / 0.09 / 0.26 | 2 of 18 (2.67) |